# Test results reported in patent US20050233973A1, “Tri-peptides for antidepressant applications” (priority 1997, published 2005).
# What was measured:
# Settings in all cases: tracer 125I-TRH; assay standard = 1.00
# [1] = system: 465B12 antibody (raised to TRH)
# [2] = system: CR-V3-B53 antibody (raised to TRH)
# [3] = system: EEP (R^2=Glu) antibody (580B6)
smiles,measurement,setting,value
"NC(=O)[C@@H]1CCCN1C(=O)[C@H](Cc1ccccc1)NC(=O)[C@@H]1CCC(=O)N1 [R^2 = Phe, pGlu-Phe-Pro-NH2]",relative potency for displacement of assay tracer,[1],6.79
same,relative potency for displacement of assay tracer,[2],0.738
same,relative potency for displacement of assay tracer,[3],6.53
